Earlier results as cited in paper PMC3151534 (Bioorganic & medicinal chemistry, 2010).

Protein sequences, listed by entry. Tags and fused reporters are not part of them. Lines headed by an entry give the natural chain unless they say otherwise; changes in a name come on top. Residues count along the entry.
UniProt P40189: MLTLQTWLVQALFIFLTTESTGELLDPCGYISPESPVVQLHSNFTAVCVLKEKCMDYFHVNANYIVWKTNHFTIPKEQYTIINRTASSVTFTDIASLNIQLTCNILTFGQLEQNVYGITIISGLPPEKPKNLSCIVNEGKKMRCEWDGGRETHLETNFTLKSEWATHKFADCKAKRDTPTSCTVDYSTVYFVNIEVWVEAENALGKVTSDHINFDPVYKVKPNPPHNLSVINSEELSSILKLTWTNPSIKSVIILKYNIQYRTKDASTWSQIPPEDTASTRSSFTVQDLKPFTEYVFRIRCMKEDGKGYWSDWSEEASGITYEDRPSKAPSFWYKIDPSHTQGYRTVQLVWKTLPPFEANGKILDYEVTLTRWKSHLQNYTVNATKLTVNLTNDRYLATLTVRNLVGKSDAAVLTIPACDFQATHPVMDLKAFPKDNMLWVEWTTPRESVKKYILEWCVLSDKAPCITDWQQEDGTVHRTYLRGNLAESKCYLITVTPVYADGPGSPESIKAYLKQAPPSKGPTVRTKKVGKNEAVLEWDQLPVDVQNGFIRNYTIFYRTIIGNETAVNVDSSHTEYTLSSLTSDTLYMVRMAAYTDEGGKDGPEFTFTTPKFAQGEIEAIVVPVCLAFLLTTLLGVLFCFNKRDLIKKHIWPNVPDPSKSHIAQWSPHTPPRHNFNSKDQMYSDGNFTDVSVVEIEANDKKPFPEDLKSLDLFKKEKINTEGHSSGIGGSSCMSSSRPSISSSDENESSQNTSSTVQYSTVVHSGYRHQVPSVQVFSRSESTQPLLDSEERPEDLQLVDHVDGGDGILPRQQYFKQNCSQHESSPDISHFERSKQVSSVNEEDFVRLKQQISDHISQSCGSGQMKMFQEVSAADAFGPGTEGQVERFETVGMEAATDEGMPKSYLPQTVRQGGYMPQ
UniProt P40763, 577-673: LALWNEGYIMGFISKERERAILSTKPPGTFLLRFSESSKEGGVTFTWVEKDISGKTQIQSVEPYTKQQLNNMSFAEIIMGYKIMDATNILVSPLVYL

Molecular target: gp130 (Homo sapiens) (UniProt P40189)
Conditions: cited from earlier work

STAT3 SH2 (from UniProt P40763)
Kd: 150 nM
